Source: the supplement of paper PMC11403291

Sequences of proteins named here, by UniProt entry; tags and fusion partners are left off. A change or cut given only in a name is not applied to a line headed by its entry.
UniProt Q9P1W9: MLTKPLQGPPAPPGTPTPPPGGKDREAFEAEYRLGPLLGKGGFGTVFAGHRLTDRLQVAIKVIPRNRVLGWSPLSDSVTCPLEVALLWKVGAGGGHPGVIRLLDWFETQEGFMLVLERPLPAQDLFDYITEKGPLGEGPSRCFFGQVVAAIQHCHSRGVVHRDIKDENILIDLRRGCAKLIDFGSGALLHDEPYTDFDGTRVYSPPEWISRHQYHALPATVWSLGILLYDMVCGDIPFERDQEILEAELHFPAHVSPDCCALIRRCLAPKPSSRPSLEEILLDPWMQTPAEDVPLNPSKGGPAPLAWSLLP
UniProt P15056, whole entry: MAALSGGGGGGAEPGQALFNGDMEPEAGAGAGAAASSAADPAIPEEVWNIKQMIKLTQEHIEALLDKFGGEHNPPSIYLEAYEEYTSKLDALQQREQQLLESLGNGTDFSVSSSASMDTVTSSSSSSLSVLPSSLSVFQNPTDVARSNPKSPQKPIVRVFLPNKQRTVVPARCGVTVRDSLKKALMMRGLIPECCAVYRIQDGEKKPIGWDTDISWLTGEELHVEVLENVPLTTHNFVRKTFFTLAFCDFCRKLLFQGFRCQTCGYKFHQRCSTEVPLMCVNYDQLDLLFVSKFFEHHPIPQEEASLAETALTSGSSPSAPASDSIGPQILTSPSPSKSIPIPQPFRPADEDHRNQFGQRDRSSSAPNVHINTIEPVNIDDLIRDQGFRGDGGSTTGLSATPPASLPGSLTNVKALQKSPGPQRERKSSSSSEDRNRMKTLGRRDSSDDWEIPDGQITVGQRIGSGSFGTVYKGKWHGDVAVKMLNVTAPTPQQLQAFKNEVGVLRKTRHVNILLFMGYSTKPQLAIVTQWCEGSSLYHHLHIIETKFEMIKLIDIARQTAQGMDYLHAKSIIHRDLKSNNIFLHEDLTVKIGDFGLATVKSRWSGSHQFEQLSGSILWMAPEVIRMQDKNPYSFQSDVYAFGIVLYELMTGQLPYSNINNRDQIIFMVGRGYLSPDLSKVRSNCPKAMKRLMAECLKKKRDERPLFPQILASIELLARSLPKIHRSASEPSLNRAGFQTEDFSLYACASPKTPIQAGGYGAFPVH
UniProt Q9NYV4, whole entry, looked up: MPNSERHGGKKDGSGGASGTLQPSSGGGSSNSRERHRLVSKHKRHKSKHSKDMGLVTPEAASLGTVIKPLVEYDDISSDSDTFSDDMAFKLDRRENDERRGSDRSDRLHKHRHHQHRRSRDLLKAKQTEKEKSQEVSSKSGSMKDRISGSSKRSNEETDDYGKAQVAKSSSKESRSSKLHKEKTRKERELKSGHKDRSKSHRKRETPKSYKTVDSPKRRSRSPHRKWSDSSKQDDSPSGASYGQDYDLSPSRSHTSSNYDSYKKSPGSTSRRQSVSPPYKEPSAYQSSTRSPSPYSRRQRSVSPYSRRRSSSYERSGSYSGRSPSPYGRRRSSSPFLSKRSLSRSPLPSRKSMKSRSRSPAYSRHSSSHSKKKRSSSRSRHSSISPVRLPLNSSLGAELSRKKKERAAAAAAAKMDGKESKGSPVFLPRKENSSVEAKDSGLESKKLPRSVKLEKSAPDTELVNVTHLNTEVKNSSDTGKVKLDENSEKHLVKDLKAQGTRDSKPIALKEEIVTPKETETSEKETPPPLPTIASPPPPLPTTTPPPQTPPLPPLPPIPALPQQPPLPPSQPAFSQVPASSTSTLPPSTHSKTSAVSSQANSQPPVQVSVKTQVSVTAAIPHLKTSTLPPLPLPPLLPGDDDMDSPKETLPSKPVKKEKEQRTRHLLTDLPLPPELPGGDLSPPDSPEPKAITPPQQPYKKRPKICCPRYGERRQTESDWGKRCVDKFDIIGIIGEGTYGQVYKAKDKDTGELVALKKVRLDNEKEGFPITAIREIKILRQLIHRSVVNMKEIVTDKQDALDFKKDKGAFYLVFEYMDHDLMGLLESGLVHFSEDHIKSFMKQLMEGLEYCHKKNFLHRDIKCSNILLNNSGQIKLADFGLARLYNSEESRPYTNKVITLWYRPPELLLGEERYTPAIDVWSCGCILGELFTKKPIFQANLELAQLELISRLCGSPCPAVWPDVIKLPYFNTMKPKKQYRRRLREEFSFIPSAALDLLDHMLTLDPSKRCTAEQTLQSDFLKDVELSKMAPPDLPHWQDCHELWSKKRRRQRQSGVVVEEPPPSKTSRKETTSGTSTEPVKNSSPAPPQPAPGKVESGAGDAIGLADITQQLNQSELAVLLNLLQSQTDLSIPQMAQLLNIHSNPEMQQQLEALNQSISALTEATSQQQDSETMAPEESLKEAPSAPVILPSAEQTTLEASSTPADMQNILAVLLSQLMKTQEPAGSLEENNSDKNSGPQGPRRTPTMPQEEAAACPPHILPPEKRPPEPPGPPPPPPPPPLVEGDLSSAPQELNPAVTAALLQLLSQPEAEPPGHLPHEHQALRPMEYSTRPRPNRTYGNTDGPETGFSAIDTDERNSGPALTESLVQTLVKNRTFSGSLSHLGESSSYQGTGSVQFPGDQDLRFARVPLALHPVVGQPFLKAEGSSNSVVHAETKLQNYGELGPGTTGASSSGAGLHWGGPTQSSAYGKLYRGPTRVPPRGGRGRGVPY
UniProt Q6P5Z2: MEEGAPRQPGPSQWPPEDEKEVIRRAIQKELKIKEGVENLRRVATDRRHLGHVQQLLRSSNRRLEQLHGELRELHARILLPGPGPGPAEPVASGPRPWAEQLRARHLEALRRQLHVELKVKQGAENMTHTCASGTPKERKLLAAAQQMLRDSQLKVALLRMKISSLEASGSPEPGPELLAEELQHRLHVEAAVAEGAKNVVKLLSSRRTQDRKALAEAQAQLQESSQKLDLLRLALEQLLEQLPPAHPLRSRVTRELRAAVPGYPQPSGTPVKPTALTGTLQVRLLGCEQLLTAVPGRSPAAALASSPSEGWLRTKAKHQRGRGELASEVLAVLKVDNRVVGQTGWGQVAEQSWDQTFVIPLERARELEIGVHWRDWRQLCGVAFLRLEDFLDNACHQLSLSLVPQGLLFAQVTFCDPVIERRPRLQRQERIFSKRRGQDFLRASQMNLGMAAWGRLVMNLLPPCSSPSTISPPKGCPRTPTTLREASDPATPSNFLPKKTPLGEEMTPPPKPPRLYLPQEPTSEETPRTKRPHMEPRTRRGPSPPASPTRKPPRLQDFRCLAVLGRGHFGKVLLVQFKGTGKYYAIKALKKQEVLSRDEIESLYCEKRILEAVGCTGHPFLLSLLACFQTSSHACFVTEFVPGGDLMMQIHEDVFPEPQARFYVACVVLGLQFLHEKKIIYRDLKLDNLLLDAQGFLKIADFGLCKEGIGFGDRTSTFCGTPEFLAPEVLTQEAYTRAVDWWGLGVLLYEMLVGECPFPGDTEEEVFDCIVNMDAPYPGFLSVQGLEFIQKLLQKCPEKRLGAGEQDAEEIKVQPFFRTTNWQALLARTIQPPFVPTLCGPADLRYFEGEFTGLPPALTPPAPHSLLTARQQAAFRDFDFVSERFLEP

How the values were obtained:
Test in all cases: apparent dissociation constant pKd app (kinobead competition) (-log10(M)); higher = stronger binding
[1] = target: PIM2 (UniProt Q9P1W9)
[2] = target: T1, TP53RK (UniProt Q96S44)
T1 sequence (whole entry): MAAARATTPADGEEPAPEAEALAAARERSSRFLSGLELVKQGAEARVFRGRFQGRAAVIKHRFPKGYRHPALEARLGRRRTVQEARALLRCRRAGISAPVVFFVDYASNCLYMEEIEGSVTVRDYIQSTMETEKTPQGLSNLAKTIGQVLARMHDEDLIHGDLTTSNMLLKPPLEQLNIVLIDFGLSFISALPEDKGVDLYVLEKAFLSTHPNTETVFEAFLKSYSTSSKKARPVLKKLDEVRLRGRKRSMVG

[3] = target: BRAF (UniProt P15056)
[4] = target: T2, MAP3K5 (UniProt Q99683)
T2 sequence (whole entry): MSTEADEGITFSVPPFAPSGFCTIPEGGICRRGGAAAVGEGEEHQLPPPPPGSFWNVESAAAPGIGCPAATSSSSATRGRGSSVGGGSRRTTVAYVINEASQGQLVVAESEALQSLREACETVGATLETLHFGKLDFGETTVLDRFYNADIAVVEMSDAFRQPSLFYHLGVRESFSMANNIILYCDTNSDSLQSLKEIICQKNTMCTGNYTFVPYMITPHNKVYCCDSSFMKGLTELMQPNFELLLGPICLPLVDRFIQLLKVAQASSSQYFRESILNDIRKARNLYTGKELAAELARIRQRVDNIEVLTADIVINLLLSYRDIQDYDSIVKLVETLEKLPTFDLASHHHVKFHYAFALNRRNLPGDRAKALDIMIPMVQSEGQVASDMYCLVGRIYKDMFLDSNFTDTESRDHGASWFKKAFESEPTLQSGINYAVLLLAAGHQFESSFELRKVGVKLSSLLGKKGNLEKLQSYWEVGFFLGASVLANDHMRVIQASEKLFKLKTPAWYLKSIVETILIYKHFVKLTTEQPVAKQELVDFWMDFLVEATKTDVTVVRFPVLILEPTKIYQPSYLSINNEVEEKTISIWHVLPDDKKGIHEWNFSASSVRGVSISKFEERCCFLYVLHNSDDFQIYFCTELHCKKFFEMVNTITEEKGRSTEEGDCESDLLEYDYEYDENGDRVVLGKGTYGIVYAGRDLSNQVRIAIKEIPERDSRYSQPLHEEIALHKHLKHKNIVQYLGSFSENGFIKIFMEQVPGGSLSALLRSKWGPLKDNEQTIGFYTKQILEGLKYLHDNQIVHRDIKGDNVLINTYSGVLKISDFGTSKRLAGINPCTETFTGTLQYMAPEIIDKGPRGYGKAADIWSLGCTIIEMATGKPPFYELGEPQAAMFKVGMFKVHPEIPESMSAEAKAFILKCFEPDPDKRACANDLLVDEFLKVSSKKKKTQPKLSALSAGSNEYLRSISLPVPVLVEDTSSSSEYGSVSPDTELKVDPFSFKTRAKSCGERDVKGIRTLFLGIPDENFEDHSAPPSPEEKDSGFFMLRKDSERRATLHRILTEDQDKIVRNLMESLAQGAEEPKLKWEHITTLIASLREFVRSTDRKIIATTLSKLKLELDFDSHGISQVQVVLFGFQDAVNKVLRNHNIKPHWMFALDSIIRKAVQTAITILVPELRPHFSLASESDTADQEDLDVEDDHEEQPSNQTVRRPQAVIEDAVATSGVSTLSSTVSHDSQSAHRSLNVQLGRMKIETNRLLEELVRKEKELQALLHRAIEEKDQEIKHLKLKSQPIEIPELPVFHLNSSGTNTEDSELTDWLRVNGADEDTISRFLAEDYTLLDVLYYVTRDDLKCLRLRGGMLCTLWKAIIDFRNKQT

[5] = target: CRKRS (UniProt Q9NYV4)
[6] = target: T3, NEK9 (UniProt Q8TD19)
T3 sequence (whole entry): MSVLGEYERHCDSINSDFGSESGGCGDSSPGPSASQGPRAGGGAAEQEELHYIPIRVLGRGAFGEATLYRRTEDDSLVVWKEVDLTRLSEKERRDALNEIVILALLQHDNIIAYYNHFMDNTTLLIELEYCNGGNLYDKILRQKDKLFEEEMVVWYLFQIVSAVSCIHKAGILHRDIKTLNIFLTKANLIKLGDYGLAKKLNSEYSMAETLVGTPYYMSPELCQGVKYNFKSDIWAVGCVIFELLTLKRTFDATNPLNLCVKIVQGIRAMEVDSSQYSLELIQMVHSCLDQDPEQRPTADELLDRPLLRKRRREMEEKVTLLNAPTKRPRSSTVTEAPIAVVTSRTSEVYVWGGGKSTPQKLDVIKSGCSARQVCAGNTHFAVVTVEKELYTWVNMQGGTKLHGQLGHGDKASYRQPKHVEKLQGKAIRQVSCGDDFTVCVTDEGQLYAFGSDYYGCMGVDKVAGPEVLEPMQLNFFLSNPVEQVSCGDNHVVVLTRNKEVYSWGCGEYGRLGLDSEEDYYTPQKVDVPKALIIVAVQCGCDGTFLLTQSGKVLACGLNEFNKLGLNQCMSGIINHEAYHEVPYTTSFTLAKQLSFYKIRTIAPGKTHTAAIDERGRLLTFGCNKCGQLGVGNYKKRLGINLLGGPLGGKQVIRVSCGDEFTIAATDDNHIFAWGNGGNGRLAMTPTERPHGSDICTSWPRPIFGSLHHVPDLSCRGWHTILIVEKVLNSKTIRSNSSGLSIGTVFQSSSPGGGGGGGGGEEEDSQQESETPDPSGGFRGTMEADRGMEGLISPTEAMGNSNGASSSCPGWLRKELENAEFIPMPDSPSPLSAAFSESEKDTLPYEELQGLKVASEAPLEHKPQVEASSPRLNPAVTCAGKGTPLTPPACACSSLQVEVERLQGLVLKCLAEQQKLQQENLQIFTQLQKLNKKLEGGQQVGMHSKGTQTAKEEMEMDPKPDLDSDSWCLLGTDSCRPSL

[7] = target: PKN3 (UniProt Q6P5Z2)

| apparent dissociation constant pKd app (-log10) [1] | apparent dissociation constant pKd app (-log10) [2] | apparent dissociation constant pKd app (-log10) [3] | apparent dissociation constant pKd app (-log10) [4] | apparent dissociation constant pKd app (-log10) [5] | apparent dissociation constant pKd app (-log10) [7] | Compound | apparent dissociation constant pKd app (-log10) [6] |
| --- | --- | --- | --- | --- | --- | --- | --- |
| < 4.6 | < 4.5 | < 4.5 | < 4.6 | < 4.5 | < 4.6 | O=C(c1cc(Cc2n[nH]c(=O)c3ccccc23)ccc1F)N1CCN(C(=O)C2CC2)CC1 [Olaparib] | < 4.6 |
| < 4.6 | < 4.5 | < 4.5 | < 4.6 | < 4.5 | < 4.6 | NC(=O)c1cccc2cn(-c3ccc([C@@H]4CCCNC4)cc3)nc12 [Niraparib] | < 4.6 |
| < 4.6 | < 4.5 | < 4.5 | < 4.6 | < 4.5 | < 4.6 | Cn1ncnc1[C@H]1c2n[nH]c(=O)c3cc(F)cc(c23)N[C@@H]1c1ccc(F)cc1 [Talazoparib] | < 4.6 |
